# Antibody variant affinities, Ab-95 light chain, assay 2

The measurements come from Engelhart et al. 2022 (doi:10.1038/s41597-022-01779-4) through the FLAb antibody collection.

All variants were tested on one target, the spike HR2 peptide PDVDLGDISGINAS (SARS-CoV-2).

The variants keep the heavy chain, the linker and the frameworks of Ab-95 (scFv order VH, the linker GGGGSGGGGSGGGGS, VL).
VH: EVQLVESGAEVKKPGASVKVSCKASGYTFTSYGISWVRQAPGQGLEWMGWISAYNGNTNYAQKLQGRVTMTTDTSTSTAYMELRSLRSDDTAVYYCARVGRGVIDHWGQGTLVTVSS
VL: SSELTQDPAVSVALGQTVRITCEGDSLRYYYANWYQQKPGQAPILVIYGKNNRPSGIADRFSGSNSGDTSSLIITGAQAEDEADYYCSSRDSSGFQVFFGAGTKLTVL

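Phage display of a naive human antibody library on the peptide gave the parent. Variants in AAYL52 differ from the parent at up to three CDR positions; double and triple changes were sampled at random. The assay is AlphaSeq: two haploid yeast populations carry antibody and antigen on their surface. Mating (16 h, 30 °C) was followed by selection of diploids and sequencing of their barcodes. A regression on co-assayed BCL2-family reference pairs converts the normalised counts of each replicate to an apparent Kd. Each pool was mated in three replicate cultures.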

Substitutions are numbered in sequence along the VL above, starting at 1 (not Kabat). Values are log10 of the apparent Kd in nM; lower means stronger binding. A mean of the replicates is given; it leaves out those without a signal. Where no diploid with the target was found in that replicate, the entry reads "ND": below detection, most likely a poor binder, though not proof of it. Three control strains display no target. For library AAYL52, 28% of the pairings with them gave a signal, with a median of 3.91 and one signal in twenty below 2.90, so weak values seen in few replicates may be background. For each scFv, signals with the empty controls are counted beside the result, with their mean in brackets.

{"changes": "Y31W/K50W/D91T", "log10 Kd, replicates": "ND 3.83 ND", "mean log10 Kd (nM)": "3.83", "signal with controls": "3/9 (3.76)"}
{"changes": "E23S/Y29W/R53T", "log10 Kd, replicates": "2.44 2.23 3.58", "mean log10 Kd (nM)": "2.75", "signal with controls": "0/9"}
{"changes": "S26W/R53N/Q96L", "log10 Kd, replicates": "3.83 ND ND", "mean log10 Kd (nM)": "3.83", "signal with controls": "2/9 (3.10)"}
{"changes": "N33S/N52E/S92I", "log10 Kd, replicates": "2.24 1.68 2.01", "mean log10 Kd (nM)": "1.98", "signal with controls": "2/9 (3.29)"}
{"changes": "S26Q/S88Y/F95Y", "log10 Kd, replicates": "4.87 ND ND", "mean log10 Kd (nM)": "4.87", "signal with controls": "1/9 (4.39)"}
{"changes": "N51Q/S55E/S93N", "log10 Kd, replicates": "3.07 2.96 2.65", "mean log10 Kd (nM)": "2.89", "signal with controls": "3/9 (4.56)"}
{"changes": "Y29P/P54T/S92H", "log10 Kd, replicates": "2.16 2.52 1.98", "mean log10 Kd (nM)": "2.22", "signal with controls": "2/9 (3.43)"}
{"changes": "P54T/S89D/G94T", "log10 Kd, replicates": "3.98 3.93 ND", "mean log10 Kd (nM)": "3.96", "signal with controls": "0/9"}
{"changes": "P54Y/R90I/G94D", "log10 Kd, replicates": "ND ND ND", "mean log10 Kd (nM)": "ND", "signal with controls": "2/9 (3.41)"}
{"changes": "Y31P/N51V/F98I", "log10 Kd, replicates": "2.15 2.30 2.01", "mean log10 Kd (nM)": "2.15", "signal with controls": "1/9 (3.25)"}
{"changes": "S26E/F98I", "log10 Kd, replicates": "2.19 4.42 2.22", "mean log10 Kd (nM)": "2.94", "signal with controls": "0/9"}
{"changes": "R28V/Y31D/S92M", "log10 Kd, replicates": "1.81 1.83 1.44", "mean log10 Kd (nM)": "1.69", "signal with controls": "4/9 (4.02)"}
{"changes": "G49H/R53V/S92C", "log10 Kd, replicates": "ND ND ND", "mean log10 Kd (nM)": "ND", "signal with controls": "0/9"}
{"changes": "S89F/Q96S", "log10 Kd, replicates": "2.59 2.02 1.79", "mean log10 Kd (nM)": "2.14", "signal with controls": "4/9 (4.36)"}
{"changes": "E23F/D91H/G94Q", "log10 Kd, replicates": "5.72 3.56 4.33", "mean log10 Kd (nM)": "4.54", "signal with controls": "5/9 (4.06)"}
{"changes": "L27G/N51S/S93K", "log10 Kd, replicates": "ND 4.63 ND", "mean log10 Kd (nM)": "4.63", "signal with controls": "4/9 (3.95)"}
{"changes": "S26R/N33V/V97T", "log10 Kd, replicates": "4.18 ND ND", "mean log10 Kd (nM)": "4.18", "signal with controls": "2/9 (4.19)"}
{"changes": "L27M/Y29I/S92L", "log10 Kd, replicates": "ND ND ND", "mean log10 Kd (nM)": "ND", "signal with controls": "2/9 (3.63)"}

The first 3 variants above that were never detected:

{"changes": "P54Y/R90I/G94D", "log10 Kd, replicates": "ND ND ND", "mean log10 Kd (nM)": "ND", "signal with controls": "2/9 (3.41)"}
{"changes": "G49H/R53V/S92C", "log10 Kd, replicates": "ND ND ND", "mean log10 Kd (nM)": "ND", "signal with controls": "0/9"}
{"changes": "L27M/Y29I/S92L", "log10 Kd, replicates": "ND ND ND", "mean log10 Kd (nM)": "ND", "signal with controls": "2/9 (3.63)"}